The subject of the test is EGFR-negative SKNM-C-cell cultures. In words: Negative control: siRNA transport into EGFR-negative cells. The test is classed as cell-based. From the text:
Whenever we performed negative control experiments, i.e. treating cells NOT expressing the EGF receptor with effective conjugates targeting the EGF receptor, we consequently observed extremely low cellular targeting efficiencies (FIG. 32 B), but we were intrigued by the accumulation of fluorescent micellar structures OUTSIDE the cells. These accumulations, probably attached to matrix-like structures on the treated dish surface, were only seen, if there was no target found on the cells to bind and internalize the conjugates. In addition, these accumulations were all of a similar size and, they had to be much larger than the approx. 10-20 nm, which would account for a monomer of one IgG plus several protamines plus eight attached siRNAs, because this size would not be detectable as a particle in fluorescent light microscopy, which approximately has a resolution of half of the emission wavelength, giving rise to particle sizes larger than 200 nm.

Turning to “Uncoupled cetuximab: anti-EGFR monoclonal antibody cetuximab, not coupled to protamine”, the “transport of Alexa488-control siRNA into EGFR-negative SKNM-C cells” value is “does not transport”.

The values are drawn from patent US20240024500A1, “ELECTROSTATIC NANOPARTICLES AND USE THEREOF” (Westfaelische Wilhelms-Universitaet Muenster, priority 2020, published 2024).
